“And” between values parts separate entries of the source, which are not always exact repeats. Equal values may be shown once.
Target: T1, CYP1A1 (Homo sapiens, UniProt P04798)
T1 construct: host or cells: yeast microsomes (Saccharosomes)
T1 sequence (P04798 1-512): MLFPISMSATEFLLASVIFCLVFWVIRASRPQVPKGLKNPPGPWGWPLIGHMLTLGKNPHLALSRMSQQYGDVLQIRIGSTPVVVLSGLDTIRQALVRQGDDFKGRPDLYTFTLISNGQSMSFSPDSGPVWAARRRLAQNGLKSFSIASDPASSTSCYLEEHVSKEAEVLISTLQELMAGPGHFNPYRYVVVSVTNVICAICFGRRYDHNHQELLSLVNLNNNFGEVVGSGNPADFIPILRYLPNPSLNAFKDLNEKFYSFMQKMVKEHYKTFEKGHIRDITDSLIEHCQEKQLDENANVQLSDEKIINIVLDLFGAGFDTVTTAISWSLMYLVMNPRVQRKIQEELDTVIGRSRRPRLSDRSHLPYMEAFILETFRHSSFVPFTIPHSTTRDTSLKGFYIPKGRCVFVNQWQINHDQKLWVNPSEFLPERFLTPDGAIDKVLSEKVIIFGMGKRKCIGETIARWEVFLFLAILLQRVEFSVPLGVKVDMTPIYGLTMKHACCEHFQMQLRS
Assay: CYP1A1 inhibition in HEK293 cells transfected with pcDNA3.1/CYP1A1 (live cells)
Assay type: cell-based
Conditions: 5 μM EROD
Experimental: Example 26. In-vitro CYP450 inhibition in HEK293 cells transfected with pcDNA3.1/CYP1A1 against 5 μM EROD. This assay was performed in a similar way as described above in examples 24 and 25. The HEK293 cells used here was procured from ‘European Collection of Authenticated Cell Cultures’ (catalog number. ECACC 85120602).
Example 27. IC50 determination of selected compounds against CYP1A1 and other CYP P450s in HEK293 cells transfected with pcDNA3.1/CYP1A1: The IC50 values of selected compound 8 and 6 against CYP1A1 in Saccharosomes and in HEK293 cells transfected with pcDNA3.1/CYP1A1 was determined (Table 5).

% inhibition of CYP1A1 in HEK293 cells at 10 μM: 81% and 81.3%
SMILES: COc1c2occc2c(OC)c2c(=O)cc(C)oc12 [Compound 1, Khellin, reference compound]
